Results: paper PMC4724290 (Synapse (New York, N.Y.), 2015)
Values joined by “and” are separate entries in the source; they are usually repeats but may differ in a detail not shown here. Equal values may be shown once.

Chains of the proteins cited; added tags and fusions are not shown.
UniProt O55242, whole entry: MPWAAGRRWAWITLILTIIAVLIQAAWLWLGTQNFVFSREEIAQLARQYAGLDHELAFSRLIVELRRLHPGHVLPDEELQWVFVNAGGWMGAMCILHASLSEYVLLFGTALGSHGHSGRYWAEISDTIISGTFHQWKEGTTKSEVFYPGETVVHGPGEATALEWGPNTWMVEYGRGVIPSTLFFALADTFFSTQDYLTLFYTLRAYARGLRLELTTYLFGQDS

Tests used:
σ1 receptors = σ1 receptors (Mus musculus, UniProt O55242); test: In vitro σ1 receptor binding, [^3H]; set-up: species or system CD-1 mouse
σ2 receptors = target: T1, σ2 receptors (Mus musculus, UniProt Q8VD00); test: In vitro σ2 receptor binding, [^3H]DTG/; set-up: species or system CD-1 mouse
T1 sequence (Q8VD00 1-176): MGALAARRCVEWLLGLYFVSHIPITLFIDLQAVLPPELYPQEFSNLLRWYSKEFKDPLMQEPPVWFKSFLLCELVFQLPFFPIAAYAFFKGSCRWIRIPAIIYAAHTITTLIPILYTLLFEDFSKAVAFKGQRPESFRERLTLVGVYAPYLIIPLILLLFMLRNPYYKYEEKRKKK

Row | SMILES | IC50 (σ1 receptors) | Ki (σ1 receptors) | IC50 (σ2 receptors) | Ki (σ2 receptors) | Kd (σ1 receptors; read-out: Equilibrium dissociation constant (Kd), σ1 receptors, saturation binding, 37 °C, 180 min)
1 | CC(C)=CCN1CC[C@]2(C)c3cc(O)ccc3C[C@H]1[C@H]2C [(+)-Pentazocine, (+)-pentazocine] | 7.88 ± 0.53 nM | 5.1 ± 0.34 nM | 2280 ± 167 nM | 2060 ± 151 nM | –
2 | CC(C)=CCN1CC[C@]2(C)c3cc(O)ccc3C[C@H]1[C@H]2C [[^3H](+)-Pentazocine] | – | – | – | – | 5.51 nM and 5.5 nM
